Laboratory results: patent publication US20140220085A1, “METHOD FOR TISSUE ENGINEERING” (Industrial Technology Research Institute, priority 2011, published 2014)

How the values were obtained:
C2C12 cells [1] = test: Detection of activity of ALP in C2C12 cells, 72 hours, pNPP substrate / BCA; type: cell-based
Description: C2C12 cells purchased from Bioresource Collection and Research Center (BCRC) were cultured in an incubator with 5% CO2 and cryopreserved in a liquid nitrogen barrel. A DMEM medium (10% FBS and 1% penicillin/streptomycin) was utilized for cell culture and subculture. When the cells were cultured to achieve 90% of confluence, the concentration of the cells was diluted with a ratio of 1:10 and subcultured.
(§1) The concentration of the C2C12 cells was adjusted to 4×10^4 cells/ml. 0.5 ml of the medium was dropped in a 24-well cell culture plate and left to stand in an incubator with 5% CO2 for 18 hours to make the cells uniformly attach to the cell culture plate. The medium in the cell culture plate attached with the cells was replaced with a DMEM medium (2% FBS) and the sample of No. 4 recited on Table 2 of Example 2 was added thereto. The encapsulation amount of BMP-2 ranged from 10 μg/mL to 100 μg/mL. The cell culture plate was left to stand in the incubator for 72 hours. After the cells were washed with PBS, a lysis buffer was added to the medium. After centrifugation, a supernatant was collected and a BCA (bicinchoninic acid) assay was performed thereon to detect the protein concentration thereof. The activity of alkaline phosphatase (ALP) was detected utilizing the p-nitrophenyl palmitate (pNPP) substrate.
as §1, with “No. 3” for “No. 4”, “thereto. Other added nano carriers encapsulated various vitamins.” for “thereto. The encapsulation amount of BMP-2 ranged from 10 μg/mL to 100 μg/mL.”
The concentration of the C2C12 cells was adjusted to 4×10^4 cells/ml. 0.5 ml of the medium was dropped in a 24-well cell culture plate and left to stand in an incubator with 5% CO2 for 18 hours to make the cells uniformly attach to the cell culture plate. The medium in the cell culture plate attached with the cells was replaced with a DMEM medium (2% FBS) and the sample of No. 3 recited on Table 2 of Example 2 was added thereto. […] The activity of alkaline phosphatase (ALP) was detected utilizing the p-nitrophenyl palmitate (pNPP) substrate.

C2C12 cells [2] = test: Activity of ALP in C2C12 cells with agglomer placed in a transwell; type: cell-based; details: FIG. 11, C2C12, 72 hours
Description: The concentration of the C2C12 cells was adjusted to 4×10^4 cells/ml. 1.0 ml of the medium was dropped in a 12-well cell culture plate and left to stand in an incubator with 5% CO2 for 18 hours to make the cells uniformly attach to the cell culture plate. The medium in the cell culture plate attached with the cells was replaced with a DMEM medium (2% FBS). A transwell with a pore size of 8.0 μm was placed on the cell culture plate. The biomedical material (agglomer) of Example 7 was placed in the transwell. The medium was then added to the transwell to cover the biomedical material (agglomer). The cell culture plate was left to stand in the incubator for 72 hours. After the cells were washed with PBS, a lysis buffer was added to the medium. After centrifugation, a supernatant was collected and a BCA (bicinchoninic acid) assay was performed thereon to detect the protein concentration thereof. The activity of alkaline phosphatase (ALP) was detected utilizing the p-nitrophenyl palmitate (pNPP) substrate.

human bone morphogenetic protein 2 [BMP-2]
activity of ALP (C2C12 cells [1]; FIG. 6, C2C12, 72 hours): 3.1
activity of ALP (C2C12 cells [1]; FIG. 6, two times the amount of BMP-2 (100 μg/ml) without encapsulation): 5.1
activity of ALP (C2C12 cells [1]; FIG. 7, C2C12, 72 hours, vitamin A high dose 0.26 μμmol/ml for the nano carrier): 0.65
activity of ALP (C2C12 cells [1]; FIG. 7, four times the amount of BMP-2 (200 μg/ml) without encapsulation): 1.7
activity of ALP (C2C12 cells [2]): 1.00
